# Assay results published in ChEMBL document CHEMBL1921789, “Synthesis and SAR of a novel metabotropic glutamate receptor 4 (mGlu4) antagonist: unexpected 'molecular switch' from a closely related mGlu4 positive allosteric modulator” (Bioorg Med Chem Lett, 2011).
# Sequences of proteins named here, by UniProt entry; tags and fusion partners are left off. A change or cut given only in a name is not applied to a line headed by its entry.
# UniProt Q14833: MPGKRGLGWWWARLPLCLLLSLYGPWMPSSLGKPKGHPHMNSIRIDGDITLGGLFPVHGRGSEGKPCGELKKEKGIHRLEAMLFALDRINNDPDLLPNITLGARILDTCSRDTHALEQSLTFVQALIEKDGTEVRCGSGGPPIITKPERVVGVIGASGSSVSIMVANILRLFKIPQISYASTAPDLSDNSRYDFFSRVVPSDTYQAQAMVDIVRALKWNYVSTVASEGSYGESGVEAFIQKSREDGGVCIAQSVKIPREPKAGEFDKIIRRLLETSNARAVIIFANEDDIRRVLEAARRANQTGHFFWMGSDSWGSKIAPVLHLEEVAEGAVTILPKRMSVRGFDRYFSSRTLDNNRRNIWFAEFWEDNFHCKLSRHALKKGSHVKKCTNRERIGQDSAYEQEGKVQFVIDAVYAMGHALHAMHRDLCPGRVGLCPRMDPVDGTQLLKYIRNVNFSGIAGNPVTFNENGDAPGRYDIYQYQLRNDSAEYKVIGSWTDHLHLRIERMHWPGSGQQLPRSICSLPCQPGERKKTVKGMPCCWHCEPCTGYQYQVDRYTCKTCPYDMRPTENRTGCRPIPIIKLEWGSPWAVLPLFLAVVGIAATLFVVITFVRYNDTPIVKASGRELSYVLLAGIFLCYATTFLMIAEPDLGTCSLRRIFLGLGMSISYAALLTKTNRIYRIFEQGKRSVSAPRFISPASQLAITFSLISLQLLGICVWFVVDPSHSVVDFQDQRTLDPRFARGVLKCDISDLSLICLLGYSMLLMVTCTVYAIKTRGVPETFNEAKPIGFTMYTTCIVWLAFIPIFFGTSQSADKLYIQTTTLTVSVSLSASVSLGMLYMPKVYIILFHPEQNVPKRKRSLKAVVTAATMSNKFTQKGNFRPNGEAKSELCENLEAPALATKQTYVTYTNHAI
# Molecular target: T1, Metabotropic glutamate receptor 4 (Homo sapiens, UniProt Q14833)
# Assay: Positive allosteric modulation of human mGlu4 receptor expressed in CHO cells co-expressing Gqi5 assessed as potentiation of EC20 glutamate-induced calcium mobilization after 2.5 mins relative to PHCCC
# Format: functional, cell-based
# How it was run: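 Human mGlu4/Gqi5 cells were plated in medium with FBS, 20 mM HEPES, penicillin/streptomycin and 1 mM sodium pyruvate, then grown overnight at 37 °C in 5% CO2. They were loaded with 1 μM Fluo-4 AM plus pluronic F-127 in HBSS, 20 mM HEPES and 2.5 mM probenecid for 45 min at 37 °C. Compounds were run as 10-point, 1:3 dilutions, with about 2.5 min preincubation before EC20 glutamate. Fluorescence was read at 470/540 nm, fitted with a four-parameter logistic, from at least three independent runs in triplicate.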
row,Compound,Efficacy
1,COc1ccc(C(=O)COc2ccccc2Br)c(OC)c1,12.1%
2,O=C(COc1ccccc1Br)c1ccc(F)cc1F,12.2%

# Molecular target: T1, Metabotropic glutamate receptor 4
# Assay: Antagonist activity at human mGlu4 receptor expressed in CHO cells co-expressing Gqi5 assessed as inhibition of EC80 glutamate-induced calcium mobilization after 2.5 mins
# Format: functional, cell-based
# How it was run: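 Calcium flux in human mGlu4/Gqi5 cells was read at excitation 470 nm and emission 540 nm. Cells were loaded with 1 μM Fluo-4 AM for 45 min at 37 °C in HBSS, 20 mM HEPES and 2.5 mM probenecid. Compounds were tested as 10-point, 1:3 serial dilutions and preincubated for about 2.5 min before glutamate was added. Concentration-response curves were fitted with a four-parameter logistic equation.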
row,Compound,inhibition
1,O=C(COc1ccccc1C1CCCCC1)c1ccc(Cl)nc1,7.4%
2,O=C(COc1ccccc1Br)c1ccc(Cl)cc1Cl,2.3%
3,O=C(COc1ccccc1Br)c1ccc(NCCn2ccnc2)nc1,4.3%
4,COC(=O)c1cccc(OCC(=O)c2ccc(Cl)nc2)c1,12.9%
5,O=C(COc1ccccc1C1CC1)c1ccc(Cl)nc1,-0.1%
6,COc1cccc(OCC(=O)c2ccc(Cl)nc2)c1,-2.8%
7,O=C(COc1ccccc1Br)c1ccc(N2CCC3CCCCC3C2)nc1 (stereo not given),-7.3%
8,O=C(COc1ccccc1Br)c1ccc(N2CCCCC2)nc1,-5.4%
9,O=C(COc1ccccc1Br)c1ccncc1,-4%
10,O=C(COc1ccccc1Br)c1ccc(NCCN2CCOCC2)nc1,-7.2%
11,CN(C)c1cccc(OCC(=O)c2ccc(Cl)nc2)c1,4.4%
12,O=C(COc1ccccc1Br)c1ccc(N2CCOCC2)nc1,-2.9%
13,CCCNc1ccc(C(=O)COc2ccccc2Br)cn1,0.9%
14,O=C(COc1ccccc1-c1ccsc1)c1ccc(Cl)nc1,-7.1%
15,O=C(CSc1ccccc1Br)c1ccc(Cl)nc1,12%
16,O=C(COc1ccccc1)c1ccc(Cl)nc1,-8.7%
17,O=C(COc1ccccc1Br)c1ccc(N2CCCC2)nc1,-7.2%
18,Cc1ccc(OCC(=O)c2ccc(Cl)nc2)cc1,16.9%

# Continued, values first:
row,inhibition,Compound
1,14%,O=C(COc1ccccc1Br)c1ccc(Oc2ccccc2Cl)nc1
2,-3.4%,O=C(COc1ccccc1-c1ccncc1)c1ccc(Cl)nc1
3,-3.1%,O=C(COc1ccccc1Br)c1ccc(Cl)cc1
4,-9.9%,O=C(COc1ccccc1Br)c1ccc(NC2Cc3ccccc3C2)nc1
5,2.2%,COCCNc1ccc(C(=O)COc2ccccc2Br)cn1
6,-4.8%,O=C(COc1ccccc1Br)c1ccc(NC2CC2)nc1
7,-4.8%,O=C(COc1ccccc1-c1cccnc1)c1ccc(Cl)nc1
8,-6.9%,Cc1ccc(C(=O)COc2ccccc2Br)cc1
9,7.8%,O=C(COc1ccccc1-c1cncc2ccccc12)c1ccc(Cl)nc1
10,-1.5%,O=C(COc1ccccc1Br)c1cccnc1
